# According to PubChem BioAssay AID1347087 (National Center for Advancing Translational Sciences (NCATS), 2019):
# The list shows a part of the results, in another mix than the full data. Records with an inconclusive call do not appear. Activity calls are given as the source filed them. The call rests on the fitted dose curve.
# Assay: qHTS for Inhibitors of the Functional Ribonucleoprotein Complex (vRNP) of Lassa (LASV) Arenavirus: LASV Confirmatory Screen - GLuc reporter signal
# Conditions: LASV minigenome vRNP, Gaussia luciferase reporter
structure (smiles),measurement,value
CCC(=O)N(c1ccccc1)C1(COC)CCN(CCc2cccs2)CC1,Potency,active: 44.4 µM
